This is a selection; strong and weak results do not stand in their true shares. Activity calls are given as the source filed them.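 How the source made its calls: active means inhibition over a set limit, the all-compound mean plus 3 SD, in both replicate runs; inconclusive means over that limit in just one replicate run; inactive means at or under that limit in both runs.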

The assay in a line: inhibitors of the yeast RAM network, pilot screen, dse1pr::URA3 reporter, 5-FOA selection (AID 869).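 Further: 0% = DMSO wells with no growth and 100% = 10 µM 1-NA-PP1 with full growth; RAM network block rescues cells from 5-FOA so hits raise OD615 growth.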 The note with it: S. cerevisiae dse1pr::URA3 5-FOA growth, OD615, 2 d; at 10 µM; stronger effect = higher value; strain carries analog-sensitive mutant Cbk1 kinase.
`COC(=O)c1cc2c(s1)N=C(c1ccccc1)N(C)P2(=O)N1CCOCC1` (stereo unspecified): the inhibition was inactive: 1.93%.

A word on the inhibition: it is the drop in the measured response relative to a control, in per cent.

Source of the values: PubChem BioAssay AID869 (SRMLSC, 2007).
